Data: patent publication US20080220497A1, “Modulation of protein functionalities” (priority 2003, published 2008)

Amino acid sequences for entries named in this document (tags omitted). Chains listed by the source or under a name are the forms on record and can include a tag or linker.
UniProt Q16539, with tags, fused parts or gaps DEL261-261: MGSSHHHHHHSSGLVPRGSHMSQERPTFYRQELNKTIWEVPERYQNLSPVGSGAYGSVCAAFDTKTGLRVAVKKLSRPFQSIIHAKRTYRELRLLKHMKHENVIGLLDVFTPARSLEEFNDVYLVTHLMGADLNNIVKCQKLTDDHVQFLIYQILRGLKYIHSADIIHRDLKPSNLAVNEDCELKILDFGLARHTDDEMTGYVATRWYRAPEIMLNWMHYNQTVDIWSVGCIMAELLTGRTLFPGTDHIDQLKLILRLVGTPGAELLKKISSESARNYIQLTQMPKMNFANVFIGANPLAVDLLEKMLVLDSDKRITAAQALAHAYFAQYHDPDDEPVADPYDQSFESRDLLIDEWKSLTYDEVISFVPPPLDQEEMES
UniProt Q16539, with tags, fused parts or gaps: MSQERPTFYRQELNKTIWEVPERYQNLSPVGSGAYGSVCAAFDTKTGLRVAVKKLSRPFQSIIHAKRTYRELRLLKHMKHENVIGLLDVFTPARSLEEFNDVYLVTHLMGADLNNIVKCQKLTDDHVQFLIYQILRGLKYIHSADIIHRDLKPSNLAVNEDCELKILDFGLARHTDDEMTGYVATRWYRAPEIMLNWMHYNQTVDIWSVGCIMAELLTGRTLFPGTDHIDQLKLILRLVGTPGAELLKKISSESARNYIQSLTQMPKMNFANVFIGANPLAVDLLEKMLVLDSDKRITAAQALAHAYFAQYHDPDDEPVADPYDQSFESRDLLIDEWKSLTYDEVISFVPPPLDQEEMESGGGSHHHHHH

Assays:
[1] = target: T1, unphosphorylated p38-alpha kinase (Homo sapiens, UniProt Q16539, DEL261-261); test: Fluorescence affinity assay, unphosphorylated p38-alpha kinase; type: binding
T1 construct: 48 (6×His-TEV tag, full length); 6×His-TEV tag (N); purchased Decode Genetics, Inc; host or cells: E. coli
Text: (§1) This fluorescence affinity assay is utilized in an affinity-based screen to identify small molecules which bind into switch control pockets of protein kinases. Binding of small molecule switch inhibitors displaces the switch control ligand phenylalanine of the DFG motif into an orientation which sterically blocks the ATP pocket. Such inhibitor-induced blockade of the ATP pocket is registered as an inhibition of binding of the fluoroprobe into the ATP pocket.
(§2) • 1. p38-alpha kinase • a. […] Polarstar Optima plate reader (BMG)
• 1. […] This dilution can be done automatically on a Tecan (or similar) robotic workstation or performed manually. • 3. […] Read at emission wavelength 420 nm upon excitation at 340 nm.
The reaction was initiated by addition of the enzyme. […] By comparison of RFU (relative fluorescence units) values with that of a control (in the absence of small molecule modulators), the percentage of inhibition at each concentration of the small molecules was calculated. IC50 values for the small molecule modulators were calculated from the % inhibition values obtained at a range of concentrations of the small molecule modulators using Prism (available from GraphPad, Inc.). When time-dependent inhibition was assessed, the plate was read at multiple reaction times such as 0.5, 1, 2, 3, 4 and 6 hours. The IC50 values were calculated at each time point. […]

[2] = target: T2, doubly phosphorylated p38-alpha kinase (Homo sapiens, UniProt Q16539); test: Fluorescence affinity assay, doubly phosphorylated p38-alpha kinase; type: binding
T2 construct: 6xHis ([…], seen only in the listing) (C); purchased Roche Applied Diagnostics
Text: as §1, §2
• 1. […] This dilution can be done automatically on a Tecan (or similar) robotic workstation or performed manually. • 3. Mix Solution A with the diluted compound solutions following Step 3 of Table 22. This step can be performed automatically on a Tecan (or similar) robotic workstation or performed manually. • 4. Incubate at 30° C. or room temp for 2 h, depending on protein stability. • 5. Read at emission wavelength 420 nm upon excitation at 340 nm. […]
A ratio greater than 1.0 indicates a preference for inhibiting the unphosphorylated form of p38-alpha kinase relative to the doubly phosphorylated form. A ratio less than 1.0 indicates a preference for inhibiting the doubly phosphorylated form of p38-alpha kinase relative to the unphosphorylated form.

[3] = target: T1, unphosphorylated p38-alpha kinase; test: Thermal denaturation of unphosphorylated p38-alpha kinase; type: binding; conditions: 15 μM small molecule
Text: (§3) Denaturation was monitored by measuring the absolute absorbance of the solutions at an appropriate wavelength (typically 230 nm and 240 nm) as a function of temperature. As the protein became denatured, additional UV absorbing functional groups became exposed causing an increase in absorbance at the melting temperature. […] The thermal data were collected using Agilent spectrophotometers and ChemStation UV/Vis Thermal Denaturation software.
The final protein and buffer solution was mixed gently using a pipetter to minimize denaturing due to over aggressive mixing. The final solution was transferred to a 50 μL cuvette for analysis.
The final solution was transferred to a 50 μL cuvette for analysis.
(§4) A first derivative calculation with data smoothing was applied to the resulting data to report the point of inflection as the melting temperature.

[4] = target: T2, doubly phosphorylated p38-alpha kinase; test: Thermal denaturation of doubly phosphorylated p38-alpha kinase; type: binding; conditions: 0.5 μM p38-alpha kinase, 20 μM small molecule
Protocol: as §3
The final concentration was 0.5 μM p38-alpha kinase and 20 μM small molecule. The final protein and buffer solution was mixed gently using a pipetter to minimize denaturing due to over aggressive mixing. The final solution was transferred to a 50 μL cuvette for analysis.
The protein and buffer solution was mixed gently using a pipetter to minimize denaturing due to over aggressive mixing. The final solution was transferred to a 50 μL cuvette for analysis.
as §4

[5] = target: T3, Phospho-p38-alpha kinase (Homo sapiens, UniProt Q16539); test: Spectrophotometric assay for phospho-p38-alpha kinase; conditions: read-out: Biochemical assay IC50
T3 construct: 6xHis ([…], seen only in the listing) (C); purchased Roche Applied Diagnostics
Protocol: Spectrophotometric Assay for Phospho-p38-alpha Kinase
• 1. […] Pyruvate kinase (PK) and lactate dehydrogenase (LDH) from Sigma: 806 units of PK and 1100 units of LDH per mL • 4. NADH (Sigma): 5.6 mM • 5. Phosphoenol pyruvate (Sigma): 20 mM • 6. Tris buffer: 100 mM Tris-HCl/20 mM MgCl2, pH 7.5, 150 uM n-Dodecyl-b-D-Maltopyranoside, and 5% DMSO • 7. ATP (20 mM) • 8. […] Polarstar Optima plate reader (BMG)
IC50 determinations were performed using a serial dilution scheme to dilute inhibitor in DMSO, followed by further dilution in reaction buffer, and finally mixing with Mixture 1 (Table 29) which contains all the enzymes. The dilution procedure ensured that the test compound at various concentrations was properly dissolved into the buffer and enzyme reaction mixture.
• 1. […] Read on the microplate reader with one point every min for at least 2.5 hours at 30° C.
A linear regression was applied to data collected from t=1.5 hr to 2.5 hr to obtain the reaction rate for each data set. […] Percentage of inhibition was calculated by comparison of the rate in the presence of a compound with that of the control. IC50 values were calculated from a series of % inhibition values determined at a range of inhibitor concentrations using GraphPad Prism (version 4). The extinction coefficient at 340 nm for NADH under the assay condition (100 μL height in a Corning 3675 microplate well) was determined to be 5×10^3 M^−1.

SMILES	IC50 [1] [nM]	IC50 [2] [nM]	ΔTm (° C.) relative to unphosphorylated apo p38 [3] [°C]	ΔTm (° C.) relative to doubly phosphorylated p38 [4] [°C]	IC50 [5] [nM]
CC(C)(C)c1cc(NC(=O)Nc2cccc3ccccc23)n(-c2cccc(CCC(=O)O)c2)n1 [Example 29, 3-(3-(3-tert-butyl-5-(3-(naphthalen-1-yl)ureido)-1H-pyrazol-1-yl)phenyl)propanoic acid]	16	56	10.1	7.3	12
CC(C)(C)c1cc(NC(=O)Nc2cccc(Cl)c2Cl)n(-c2cccc(CC(N)=O)c2)n1 [Example 69]	–	–	–	–	7
